According to article PMC10252891, “Pharmacometabolic Effects of Pteryxin and Valproate on Pentylenetetrazole-Induced Seizures in Zebrafish Reveal Vagus Nerve Stimulation” (Cells, 2023):
“And” between values parts separate entries of the source, which are not always exact repeats. Equal entries are not always repeated.

Protein sequences, listed by entry. Tags and fused reporters are not part of them. Lines headed by an entry give the natural chain unless they say otherwise; changes in a name come on top.
UniProt Q01650: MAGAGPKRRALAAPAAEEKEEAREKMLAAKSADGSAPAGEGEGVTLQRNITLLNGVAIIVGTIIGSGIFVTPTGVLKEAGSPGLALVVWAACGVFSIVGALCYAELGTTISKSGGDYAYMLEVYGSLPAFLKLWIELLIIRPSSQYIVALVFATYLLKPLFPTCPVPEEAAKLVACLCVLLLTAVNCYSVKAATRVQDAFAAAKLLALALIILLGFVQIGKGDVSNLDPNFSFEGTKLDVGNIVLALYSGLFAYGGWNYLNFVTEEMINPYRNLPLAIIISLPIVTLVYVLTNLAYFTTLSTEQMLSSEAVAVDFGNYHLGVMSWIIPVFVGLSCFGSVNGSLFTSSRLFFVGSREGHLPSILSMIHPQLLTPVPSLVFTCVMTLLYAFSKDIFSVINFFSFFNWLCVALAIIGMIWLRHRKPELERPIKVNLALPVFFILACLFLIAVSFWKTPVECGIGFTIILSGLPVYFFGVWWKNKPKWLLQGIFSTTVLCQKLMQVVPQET

Assays:
[1] = LC-MS/MS quantification of whole-body uptake in immersed zebrafish larvae
Description: After immersion larvae were plated in 1% BSA for 15 s and washed thoroughly by shaking to remove all compounds from the larvae surface. […] For quantification, six larvae were pooled before homogenization. Three experiments were carried out in independent days.
These were homogenized with the Ultrasonic Processor UP50H (Hielscher): 1 cycle—60% amplitude. The run consisted of two cycles of 15 s with a rest of 50 s in ice for each sample. […] To 100 µL of homogenate 200 µL of the internal standard (IS) Rolipram (Sigma Aldrich, Buchs, Switzerland) (20 ng/mL) for the positive MS experiment, and VPA d-6 (Sigma Aldrich, Buchs, Switzerland) (50 µg/mL) for the negative MS experiment were added. Samples were vortexed for 10 s and then centrifuged at 12,000 rpm for 10 min at 4 °C. After centrifugation, 150 µL of supernatant was transferred into LC-MS vials already containing 120 µL of MilliQ water. Then, 10 µL was injected into the LC-MS/MS system.
A hybrid triple quadrupole 4000 QTRAP mass spectrometer (AB Sciex Concord, ON, Canada) was used with a Shimadzu UFLC (Shimadzu Corporation, Kyoto, Japan) with a cooled auto-sampler. The sample temperature was maintained at 4 °C in the auto-sampler prior to analysis. The LC column was Synergi 4 µm Fusion-RP 80Å C18 50 × 2 mm, Phenomenex, maintained at 45 °C. The system was operated first in positive and after in negative mode with the same elution mobile phases and gradient method. Mobile phases were as follows: water with 0.1% formic acid (solvent A) and methanol with 0.1% formic acid (solvent B). […] The flow rate was 0.80 mL/min. Peaks were integrated, and the analyst software version 1.6.2 (AB Sciex Concord, ON, Canada) was used for quantification. […] Negative mode: Valproic acid m/z 143→143, (IS: Valproic Acid-d6 149→149).

[2] = set-up: method as in PMID 22102402; conditions: oral administration of 100 mg/kg; cited from earlier work
[3] = target: T1, LAT1 (Homo sapiens, UniProt Q01650); assay: [3H]-L-leucine uptake inhibition in MDST8-LAT1 cells; format: cell-based; conditions: preincubation 2 h, highest concentration 50 μM
T1 construct: expressed in transfected cells; host or cells: MDST8-LAT1 cells
Description: [3H]-L-Leucine uptake assay
[3H]-L-Leucine uptake assay was performed as previously described [Yan et al., 2021]. Cells were seeded in 96-well plates with opaque bottom (Corning, 353296) at 40-60% confluency, allowing them to attach for 48 hours in a fully supplemented media. Cells were preincubated with different concentrations of […]
PTX for 2 hours, then the cells were washed three times with pre-warmed Na+-free Hank's Balanced Salt […]
Solution (HBSS) containing 125 mM choline-Cl, 25 mM HEPES, 4.8 mM KCl, 1.2 mM MgSO4, 1.2 mM KH2PO4, 1.3 mM CaCl2 and 5.6 mM D-glucose (pH 7.4) and further incubated with the same solution for 7 minutes at 37 °C. [3H]-l-Leucine uptake was assessed in the same solution containing 10 nM “hot” [3H]-L-Leucine (60 Ci/mmol) (Anawa, 0140A-1) + 30 μM “cold” L-leucine. In case of 5 μM JPH203, the same procedure was followed without PTX preincubation. After 3 minutes, the solution was removed, and the cells were washed with ice-cold Na+-free HBSS to terminate the uptake. Cells were lysed with scintillation solvent MicroScint-20 (Perkin-Elmer Life Sciences, 6013621) and the radioactivity was measured with a scintillation counter (TopCount NXT, Perkin-Elmer Life Sciences).
*Yan R, Li Y, Müller J, Zhang Y, Singer S, Xia L, Zhong X, Gertsch J, Altmann KH, Zhou Q. Mechanism of substrate transport and inhibition of the human LAT1-4F2hc amino acid transporter. […]

[4] = Pteryxin 20 µM, 5 min immersion
[5] = Pteryxin 20 µM, 30 min immersion
[6] = Pteryxin 20 µM, 1 h immersion, listed as Pteryxin

pteryxin [PTX]
concentration in larvae whole-body ([1]; PTX 20 µM, 1 h): 4.28 ± 0.28 µg/g | metabolic stability in zebrafish larvae ([1]; PTX 20 µM, whole-body concentration after 18 h not strongly decreased): metabolically stable | Measured concentration in larvae whole-body ([1]; Pteryxin 1 µM, 1 h immersion): 468.7 ± 44.1 ng/g | % Absorbed ([1]; Pteryxin 10 µM, 1 h immersion): 32.2% | Measured concentration in larvae whole-body ([1]; Pteryxin 10 µM, 1 h immersion): 1243.3 ± 201.3 ng/g and 3.2 ± 0.5 µM | % Absorbed [1, 4]: 10.1% | Measured concentration in larvae whole-body [1, 4]: 820.0 ± 46.3 ng/g and 2.1 ± 0.1 µM | % Absorbed [1, 5]: 32.7% | Measured concentration in larvae whole-body [1, 5]: 2530.0 ± 105.4 ng/g and 6.5 ± 0.3 µM | % Absorbed ([1]; Pteryxin 20 µM, 1 h immersion): 55% | % Absorbed [1, 6]: 55.4% | Measured concentration in larvae whole-body [1, 6]: 4280.0 ± 284.8 ng/g and 11.1 ± 0.7 µM | % Absorbed ([1]; Pteryxin 20 μM, 18 h immersion): 44.0% | Measured concentration in larvae whole-body ([1]; Pteryxin 20 μM, 18 h immersion): 3406.7 ± 213.6 ng/g and 8.8 ± 0.5 µM | Measured concentration ([1]; Pteryxin 20 μM, without larvae): 20.5 ± 0.1 µM | Cmax in mouse plasma [2]: 976.04 ng/mL | estimated t1/2 [2]: 1.46 h | time of Cmax [2]: 120 min | IC50 [3]: ≥ 50 µM
